One test has as its target CDK2/CycE (Homo sapiens (Human), UniProt P24941). The experiment in a line: CDK2/CycE kinase assay. The settings on record: histone IIIS substrate, 0.5 μm ATP. It counts as biochemical.
For the next test, the system named is MaTu-ADR. The experiment in a line: Proliferation assay, MaTu-ADR. The settings on record: MaTu-ADR cells, 4 days, crystal violet. In kind it is cell-based, human. The text has this:
Cultivated human tumor cells (MCF7, […] human breast cancer cells, related to ATCC HTB22; NCI-H460, human non-small-cell lung cancer cells, ATCC HTB-177, HCT 116, human colon cancer cells, ATCC CCL-247; DU 145, hormone-independent human prostate cancer cells, ATCC HTB-81; MaTu-MDR, hormone-independent, multiple pharmaceutical agent-resistant human breast cancer cells, EPO-GmbH, Berlin) were flattened out at a density of about 5000 cells/measuring point, depending on the growth rate of the respective cells, in a 96-well multititer plate in 200 μl of the corresponding growth medium. […] The cell proliferation was determined by coloring the cells with crystal violet: the cells were fixed by adding 20 μl/measuring point of an 11% glutaric aldehyde solution for 15 minutes at room temperature. […] The extinction was determined by photometry at a wavelength of 595 nm The change of cell growth, in percent, was calculated by normalization of the measured values to the extinction values of the zero-point plate (=0%) and the extinction of the untreated (0 μm) cells (=100%).

Among the data in patent US8507510B2, “Sulfoximine-substituted pyrimidines as CDK- and/or VEGF inhibitors, their production and use as pharmaceutical agents” (Bayer Intellectual Property GmbH, priority 2003, dated 2013) are IC50 values, retold here.

By IC50 is commonly meant the concentration needed to halve the response being measured. A low value points to higher potency. In the case of `Cc1cc(Nc2ncc(Br)c(N[C@H](C)C(C)(C)O)n2)ccc1S(C)(=N)=O` (single isomer, unassigned) [Example 1.59], on CDK2/CycE, the IC50 was found to be 7 nM.
Regarding `CCS(=N)(=O)c1ccc(Nc2ncc(Br)c(N[C@H](C)C(C)(C)O)n2)cc1` (mixture of isomers) [Example 1.54, (RS)—S-[4-({5-bromo-4-[(R)-(2-hydroxy-1,2-dimethylpropyl)amino]pyrimidin-2-yl}amino)phenyl]-S-ethyl sulfoximide], 70 nM corresponded to half-maximal inhibition in the test with MaTu-ADR (IC50).
Consider `C[C@@H](Nc1nc(Nc2ccc(S(=N)(=O)CCO)cc2)ncc1Br)C(C)(C)O` (single isomer, unassigned) [Example 1.15], for which, on CDK2/CycE, the half-maximal inhibitory concentration (IC50) is 4 nM.
